Results taken from US20250163057A1, “DCN-1 MODULATING COMPOUNDS AND METHODS OF USE THEREOF” (Cellarity, Inc., priority 2023, published 2025).

Protein sequences, listed by entry. Tags and fused reporters are not part of them. Residues count along the entry.
UniProt Q96GG9, 60-248 limits assumed: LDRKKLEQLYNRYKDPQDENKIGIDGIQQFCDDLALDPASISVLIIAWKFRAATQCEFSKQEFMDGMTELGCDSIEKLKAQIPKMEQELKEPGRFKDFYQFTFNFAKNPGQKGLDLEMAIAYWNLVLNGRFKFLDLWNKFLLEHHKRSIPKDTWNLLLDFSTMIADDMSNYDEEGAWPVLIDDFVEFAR
UniProt Q96GG9, whole entry: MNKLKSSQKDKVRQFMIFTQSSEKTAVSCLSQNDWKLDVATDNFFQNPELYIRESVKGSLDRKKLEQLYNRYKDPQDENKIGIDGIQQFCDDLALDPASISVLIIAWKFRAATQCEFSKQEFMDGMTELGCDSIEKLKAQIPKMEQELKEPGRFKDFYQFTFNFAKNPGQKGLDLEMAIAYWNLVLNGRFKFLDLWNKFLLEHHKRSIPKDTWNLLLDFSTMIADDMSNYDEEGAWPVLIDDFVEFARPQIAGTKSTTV

Tests used:
[1] = target: DCN1 (DCUND1) protein PONY domain (Homo sapiens (Human), UniProt Q96GG9); assay: TR-FRET assay, DCN1 binding with FAM-labeled probe; conditions: read-out: TR FRET IC50 24 hr; 24 hr after treatment with compound
DCN1 protein = DCN1 protein (Homo sapiens (Human), UniProt Q96GG9); assay: Intact Protein MS Analysis with the RapidFire-TOF System (covalent adduct formation); conditions: MS Emax; 400 nM DCN1, 3 hours at room temperature
[2] = system: Cullin-3 (CUL3) neddylation; assay: AlphaLISA assay for Cullin-3 (CUL3) neddylation in TF 1 cells; conditions: read-out: Neddylation IC50, 3 hours treatment

| Compound | IC50 [1] | % Adduct Formation (DCN1 protein) | IC50 [2] |
| --- | --- | --- | --- |
| CCN1C(=O)[C@@H](NC(=O)Cc2ccc(OC(F)(F)F)cc2)[C@@H](C2CC2)c2c(C(=O)N3[C@H](C#N)C[C@H]4C[C@H]43)nn(C3CCOCC3)c21 | 1000 to 3000 nM |  |  |
| CCN1C(=O)[C@@H](NC(=O)c2cccc(Cl)c2)[C@@H](C2CC2)c2c(C(=O)N3[C@H](C#N)C[C@H]4C[C@H]43)nn(C3CCOCC3)c21 | < 200 nM | +++ (MS Emax % adduct formation greater than 80.0 and less than or equal to 100.0) | < 100 nM |
| CCN1C(=O)[C@@H](NC(=O)Cc2c(F)ccc(C)c2Cl)[C@@H](C2CC2)c2c(C(=O)N3[C@H](C#N)C[C@H]4C[C@H]43)nn(C3CCOCC3)c21 | 1000 to 3000 nM |  |  |
| CCN1C(=O)[C@@H](NC(=O)c2ccc3[nH]cnc3c2)[C@@H](C2CC2)c2c(C(=O)N3[C@H](C#N)C[C@H]4C[C@H]43)nn(C3CCOCC3)c21 [Compound I-632] | 200 to 1000 nM |  | 100 to 1000 nM |
